Test results from BindingDB's records for doi:10.1021/cb200305u (Harvard Medical School, 2012).

Chains of the proteins cited; added tags and fusions are not shown.
UniProt Q96GD4, whole entry: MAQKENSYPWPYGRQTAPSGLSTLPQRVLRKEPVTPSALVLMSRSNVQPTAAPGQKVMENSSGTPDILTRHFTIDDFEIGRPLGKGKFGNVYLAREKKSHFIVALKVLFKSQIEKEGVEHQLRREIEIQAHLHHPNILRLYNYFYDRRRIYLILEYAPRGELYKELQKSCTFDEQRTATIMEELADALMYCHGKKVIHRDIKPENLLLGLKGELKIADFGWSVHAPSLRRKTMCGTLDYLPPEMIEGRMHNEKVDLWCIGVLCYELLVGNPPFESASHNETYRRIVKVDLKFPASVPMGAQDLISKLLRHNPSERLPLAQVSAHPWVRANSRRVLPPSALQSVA

Target: Aurora kinase B (Homo sapiens, UniProt Q96GD4)
Assay: In Vitro Kinase Assay
Description: In vitro kinase assay of Aurora A, B, and C using Z-LYTE technology (Invitrogen) and ATP at Km apparent for each kinase.

- IC50: 18.4 nM
SMILES: CN1C(=O)c2ccccc2N(C)c2nc(Nc3ccc(N4CCC(O)CC4)cc3)ncc21 [Benzo[e]pyrimido[5,4-b][1,4]diazepin-6(11H)-one, 1]
